# PMC5429603, “Discovery and characterization of verinurad, a potent and specific inhibitor of URAT1 for the treatment of hyperuricemia and gout” (Scientific Reports, 2017)
# Sequences of proteins named here, by UniProt entry; tags and fusion partners are left off.
# UniProt Q96S37, whole entry: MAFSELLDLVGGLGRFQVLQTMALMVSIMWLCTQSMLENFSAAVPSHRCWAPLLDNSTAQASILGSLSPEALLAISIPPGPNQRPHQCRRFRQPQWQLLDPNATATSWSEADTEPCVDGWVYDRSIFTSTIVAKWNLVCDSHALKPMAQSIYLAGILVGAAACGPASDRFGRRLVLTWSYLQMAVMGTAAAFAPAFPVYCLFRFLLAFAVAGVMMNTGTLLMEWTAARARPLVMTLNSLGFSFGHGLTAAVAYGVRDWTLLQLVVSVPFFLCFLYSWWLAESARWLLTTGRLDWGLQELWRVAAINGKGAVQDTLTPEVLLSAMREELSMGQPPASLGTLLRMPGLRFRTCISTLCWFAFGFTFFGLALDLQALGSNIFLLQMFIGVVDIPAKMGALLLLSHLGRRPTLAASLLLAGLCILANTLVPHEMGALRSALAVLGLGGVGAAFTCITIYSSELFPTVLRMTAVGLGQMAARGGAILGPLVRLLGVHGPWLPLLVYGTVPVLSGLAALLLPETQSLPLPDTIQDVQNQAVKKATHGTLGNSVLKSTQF
# Target: human URAT1 (Homo sapiens, UniProt Q96S37)
# Experiment: URAT1 binding assay with 3H-verinurad, human URAT1 membranes
# Conditions: untreated URAT1 samples; tested as the radiolabelled form
structure (smiles),measurement,value
"CC(C)(Sc1ccncc1-c1ccc(C#N)c2ccccc12)C(=O)O [Verinurad, 2-((3-(4-cyanonaphthalen-1-yl)pyrindin-4-yl)thio)-2-methylpropanoic acid]",B max of 3H-verinurad binding,53 fmol/µg protein
